# US9682983B2, “BMP inhibitors and methods of use thereof” (THE BRIGHAM AND WOMEN'S HOSPITAL, INC., priority 2013, dated 2017)
# System: TGF-β signaling activity (CAGA-Luc, human embryonic kidney 293T cells)
# Assay: Cell luciferase assay, TGFβ (293T CAGA-Luc, TGF-β1 ligand)
# Settings: HEK-293T, read-out: Cellular Assay IC50 (nM) TGFβ
row,SMILES,IC50
1,"CN(C)Cc1ccc2c(-c3cnn4cc(-c5ccc(N6CCNCC6)cc5)cnc34)ccnc2c1 [Compound 19, N,N-dimethyl-1-(4-(6-(4-(piperazin-1-yl)phenyl)pyrazolo[1,5-a]pyrimidin-3-yl)quinolin-7-yl)methanamine]",13000 nM
2,Fc1cc(-c2cnc3c(-c4cccc5ncccc45)cnn3c2)ccc1N1CCNCC1 [Compound 40],12500 nM
3,"OCCNCc1ccc2c(-c3cnn4cc(-c5ccc(N6CCNCC6)cc5)cnc34)ccnc2c1 [Compound 14, 2-(((4-(6-(4-(piperazin-1-yl)phenyl)pyrazolo[1,5-a]pyrimidin-3-yl)quinolin-7-yl)methyl)amino)ethanol]",2520 nM
4,"c1cc(-c2cnn3cc(-c4ccc(N5CCNCC5)nc4)cnc23)c2cccnc2c1 [Compound 30, 5-(6-(6-(piperazin-1-yl)pyridin-3-yl)pyrazolo[1,5-a]pyrimidin-3-yl)quinoline]",56800 nM
5,Fc1cc(-c2cnc3c(-c4ccnc5ccccc45)cnn3c2)ccc1N1CCNCC1 [Compound 39],8040 nM
6,"[2H]c1ccc2c(-c3cnn4cc(-c5ccc(OCCN6CCCCC6)cn5)cnc34)cccc2n1 [Compound 47, 5-(6-(5-(2-(piperidin-1-yl)ethoxy)pyridin-2-yl)pyrazolo[1,5-a]pyrimidin-3-yl)-2-^2H-quinoline]",5250 nM
7,"Nc1ccc2c(-c3cnn4cc(-c5ccc(N6CCNCC6)cc5)cnc34)ccnc2c1 [Compound 27, 4-(6-(4-(piperazin-1-yl)phenyl)pyrazolo[1,5-a]pyrimidin-3-yl)quinolin-7-amine]",1960 nM
8,"Oc1cc(-c2cnn3cc(-c4ccc(N5CCNCC5)cc4)cnc23)c2ccccc2n1 [Compound 9, 4-(6-(4-(piperazin-1-yl)phenyl)pyrazolo[1,5-a]pyrimidin-3-yl)quinolin-2-ol]",36100 nM
9,"Clc1cc(-c2cnc3c(-c4ccnc5ccccc45)cnn3c2)ccc1N1CCNCC1 [Compound 35, 4-(6-(3-chloro-4-(piperazin-1-yl)phenyl)pyrazolo[1,5-a]pyrimidin-3-yl)quinoline]",9620 nM
10,"Cc1cc(-c2cnn3cc(-c4ccc(C5CCNCC5)cc4)cnc23)c2ccccc2n1 [Compound 13, 2-methyl-4-(6-(6-(piperazin-1-yl)pyridin-3-yl)pyrazolo[1,5-a]pyrimidin-3-yl)quinoline]",198 nM
11,c1ccc2c(-c3cnn4cc(-c5ccc(N6CCNCC6)cn5)cnc34)ccnc2c1 [Compound 3],905 nM
12,"[2H]c1ccc2c(-c3cnn4cc(-c5ccc(O[C@@H]6CCNC6)cn5)cnc34)cccc2n1 [Compound 63, (R)-5-(6-(5-(pyrrolidin-3-yloxy)pyridin-2-yl)pyrazolo[1,5-a]pyrimidin-3-yl)-2-^2H-quinoline]",1540 nM
13,"NC(=O)c1ccc2c(-c3cnn4cc(-c5ccc(N6CCNCC6)cc5)cnc34)ccnc2c1 [Compound 15, 4-(6-(4-(piperazin-1-yl)phenyl)pyrazolo[1,5-a]pyrimidin-3-yl)quinoline-7-carboxamide]",1300 nM
14,"c1cc(-c2cnn3cc(-c4ccc(N5CCNCC5)cc4)cnc23)c2ccc(CN3CCCC3)cc2n1 [Compound 21, 4-(6-(4-(piperazin-1-yl)phenyl)pyrazolo[1,5-a]pyrimidin-3-yl)-7-(pyrrolidin-1-ylmethyl)quinoline]",17100 nM
15,"C(#Cc1cnc2c(-c3ccnc4ccccc34)cnn2c1)CN1CCNCC1 [Compound 4, 4-(6-(3-(piperazin-1-yl)prop-1-ynyl)pyrazolo[1,5-a]pyrimidin-3-yl)quinoline]",2700 nM
16,"[2H]c1ccc2c(-c3cnn4cc(-c5ccc(OCCN6CCOCC6)cn5)cnc34)cccc2n1 [Compound 55, 4-(2-((6-(3-(2-^2H-quinolin-5-yl)pyrazolo[1,5-a]pyrimidin-6-yl)pyridin-3-yl)oxy)ethyl)morpholine]",3960 nM
17,"Cc1ccc2c(-c3cnn4cc(-c5ccc(N6[C@H](C)CNC[C@@H]6C)cc5)cnc34)cccc2n1 [Compound 54, 5-(6-(4-((2R,6S)-2,6-dimethylpiperazin-1-yl)phenyl)pyrazolo[1,5-a]pyrimidin-3-yl)-2-methylquinoline]",118 nM
18,"Cc1ccc2c(-c3cnn4cc(-c5ccc(OCCN6CCNCC6)cn5)cnc34)cccc2n1 [Compound 50, 2-methyl-5-(6-(5-(2-(piperazin-1-yl)ethoxy)pyridin-2-yl)pyrazolo[1,5-a]pyrimidin-3-yl)quinoline]",4300 nM
19,"OCc1ccc2c(-c3cnn4cc(-c5ccc(N6CCNCC6)cc5)cnc34)ccnc2c1 [Compound 16, (4-(6-(4-(piperazin-1-yl)phenyl)pyrazolo[1,5-a]pyrimidin-3-yl)quinolin-7-yl)methanol]",4060 nM
20,"Cc1ccc2c(-c3cnn4cc(-c5ccc(O[C@H]6CCNC6)cn5)cnc34)cccc2n1 [Compound 66, (S)-2-methyl-5-(6-(5-(pyrrolidin-3-yloxy)pyridin-2-yl)pyrazolo[1,5-a]pyrimidin-3-yl)quinoline]",583 nM

row,SMILES,IC50
1,"Oc1ccc2c(-c3cnn4cc(-c5ccc(N6CCNCC6)cc5)cnc34)ccnc2c1 [Compound 28, 4-(6-(4-(piperazin-1-yl)phenyl)pyrazolo[1,5-a]pyrimidin-3-yl)quinolin-7-ol]",4190 nM
2,"c1ccc2c(-c3cnn4cc(-c5cnc(N6CCNCC6)nc5)cnc34)ccnc2c1 [Compound 5, 4-(6-(2-(piperazin-1-yl)pyrimidin-5-yl)pyrazolo[1,5-a]pyrimidin-3-yl)quinoline]",40600 nM
3,"[2H]c1ccc2c(-c3cnn4cc(-c5ccc(OCCN6CCNCC6)cn5)cnc34)cccc2n1 [compound 49, 5-(6-(5-(2-(piperazin-1-yl)ethoxy)pyridin-2-yl)pyrazolo[1,5-a]pyrimidin-3-yl)-2-^2H-quinoline]",3210 nM
4,"Cc1cc(-c2cnn3cc(-c4ccc(N5[C@H](C)CNC[C@@H]5C)cc4)cnc23)c2ccccc2n1 [Compound 11, 4-(6-(4-((2R,6S)-2,6-dimethylpiperazin-1-yl)phenyl)pyrazolo[1,5-a]pyrimidin-3-yl)-2-methylquinoline]",30 nM
5,"NCc1ccc2c(-c3cnn4cc(-c5ccc(N6CCNCC6)cc5)cnc34)ccnc2c1 [Compound 20, (4-(6-(4-(piperazin-1-yl)phenyl)pyrazolo[1,5-a]pyrimidin-3-yl)quinolin-7-yl)methanamine]",2960 nM
6,"c1ccc2c(-c3cnn4cc(-c5ccc(OCCN6CCNCC6)nc5)cnc34)ccnc2c1 [Compound 41, 4-(6-(6-(2-(piperazin-1-yl)ethoxy)pyridin-3-yl)pyrazolo[1,5-a]pyrimidin-3-yl)quinoline]",16700 nM
7,"OCc1cccc2c(-c3cnn4cc(-c5ccc(N6CCNCC6)cc5)cnc34)ccnc12 [Compound 24, (4-(6-(4-(piperazin-1-yl)phenyl)pyrazolo[1,5-a]pyrimidin-3-yl)quinolin-8-yl)methanol]",7840 nM
8,"O=C(O)c1cccc2c(-c3cnn4cc(-c5ccc(N6CCNCC6)cc5)cnc34)ccnc12 [Compound 22, 4-(6-(4-(piperazin-1-yl)phenyl)pyrazolo[1,5-a]pyrimidin-3-yl)quinoline-8-carboxylic acid]",100000 nM
9,"NCc1cccc2c(-c3cnn4cc(-c5ccc(N6CCNCC6)cc5)cnc34)ccnc12 [Compound 25, (4-(6-(4-(piperazin-1-yl)phenyl)pyrazolo[1,5-a]pyrimidin-3-yl)quinolin-8-yl)methanamine]",1480 nM
10,N#Cc1cc(-c2cnc3c(-c4cccc5ncccc45)cnn3c2)ccc1N1CCNCC1 [Compound 38],12700 nM
11,"C[C@@H]1CNC[C@H](C)N1c1ccc(-c2cnc3c(-c4cccc5[nH]c(=O)ccc45)cnn3c2)cc1 [Compound 68, 5-(6-(4-((2S,6R)-2,6-dimethylpiperazin-1-yl)phenyl)pyrazolo[1,5-a]pyrimidin-3-yl)quinolin-2(1H)-one]",5380 nM
12,"Clc1cc(-c2cnc3c(-c4cccc5ncccc45)cnn3c2)ccc1N1CCNCC1 [Compound 36, 5-(6-(3-chloro-4-(piperazin-1-yl)phenyl)pyrazolo[1,5-a]pyrimidin-3-yl)quinoline]",11000 nM
13,"[2H]c1ccc2c(-c3cnn4cc(-c5ccc(OC(C)(C)CN6CCCCC6)cn5)cnc34)cccc2n1 [Compound 57, 5-(6-(5-((2-methyl-1-(piperidin-1-yl)propan-2-yl)oxy)pyridin-2-yl)pyrazolo[1,5-a]pyrimidin-3-yl)-2-^2H-quinoline]",1530 nM
14,"c1ccc2c(-c3cnn4cc(-c5ccc(N6CCNCC6)nc5)cnc34)ccnc2c1 [compound 1, 4-(6-(6-(piperazin-1-yl)pyridin-3-yl)pyrazolo[1,5-a]pyrimidin-3-yl)quinoline]",8170 nM
15,C[C@@H]1CNC[C@H](C)N1c1ccc(-c2cnc3c(-c4cccc5ncccc45)cnn3c2)cn1 [Compound 34],3870 nM
16,"Cc1ccc2c(-c3cnn4cc(-c5ccc(OC6CCN(C)CC6)cn5)cnc34)cccc2n1 [Compound 60, 2-methyl-5-(6-(5-((1-methylpiperidin-4-yl)oxy)pyridin-2-yl)pyrazolo[1,5-a]pyrimidin-3-yl)quinoline]",801 nM
17,"Cc1ccc2c(-c3cnn4cc(-c5ccc(OC(C)(C)CN6CCCCC6)cn5)cnc34)cccc2n1 [Compound 58, 2-methyl-5-(6-(5-((2-methyl-1-(piperidin-1-yl)propan-2-yl)oxy)pyridin-2-yl)pyrazolo[1,5-a]pyrimidin-3-yl)quinoline]",226 nM
18,"[2H]c1ccc2c(-c3cnn4cc(-c5ccc(OC6CCN(C)CC6)cn5)cnc34)cccc2n1 [Compound 59, 5-(6-(5-((1-methylpiperidin-4-yl)oxy)pyridin-2-yl)pyrazolo[1,5-a]pyrimidin-3-yl)-2-^2H-quinoline]",5860 nM
19,"[2H]c1cc(-c2cnn3cc(-c4ccc(N5CCNCC5)nc4)cnc23)c2ccccc2n1 [compound 17, 4-(6-(6-(piperazin-1-yl)pyridin-3-yl)pyrazolo[1,5-a]pyrimidin-3-yl)quinoline]",3450 nM
20,"Cc1ccc2c(-c3cnn4cc(-c5ccc(O[C@@H]6CCNC6)cn5)cnc34)cccc2n1 [Compound 64, (R)-2-methyl-5-(6-(5-(pyrrolidin-3-yloxy)pyridin-2-yl)pyrazolo[1,5-a]pyrimidin-3-yl)quinoline]",559 nM
